# Values quoted from earlier work, collected in article PMC9469100, “Turning Nonselective Inhibitors of Type I Protein Arginine Methyltransferases into Potent and Selective Inhibitors of Protein Arginine Methyltransferase 4 through a Deconstruction–Reconstruction and Fragment-Growing Approach” (Journal of Medicinal Chemistry, 2022).
# Tested on: lysine methyltransferase SET7/9
# Conditions: cited from earlier work
compound,measurement,value
O=C(Nc1ccc2cc(C(=O)O)cc(O)c2c1)Nc1ccc2cc(C(=O)O)cc(O)c2c1 [compound 2],activity against the lysine methyltransferase SET7/9,essentially inactive
